Experiments:
[1] = Ratio of inhibitory activity against activated protein C to that of factor Xa
[2] = Ratio inhibitory activity against coagulation factor IIa to that of factor Xa
[3] = Ratio of inhibitory activity against […] to that of factor Xa
[4] = Ratio of inhibitory activity against plasminogen activator to that of factor Xa
[5] = Ratio of inhibitory activity against Plasmin to that of factor Xa

Ratio [1]: > 3080
Ratio [2]: > 660
Ratio [3]: > 480
Ratio [4]: > 1450
Ratio [5]: > 1200
Compound: Nc1cc2ccnc(N)c2cc1CN1CC[C@H](NS(=O)(=O)c2cc3ncccc3s2)C1=O

Reference: ChEMBL document CHEMBL1132509, “Aminoisoquinolines: design and synthesis of an orally active benzamidine isostere for the inhibition of factor XA” (Bioorg Med Chem Lett, 1999)
